# According to PubChem BioAssay AID2074 (Sanford-Burnham Center for Chemical Genomics, 2009):
# Amino acid sequences for entries named in this document (tags omitted). A change or cut given only in a name is not applied to a line headed by its entry.
# UniProt P51452: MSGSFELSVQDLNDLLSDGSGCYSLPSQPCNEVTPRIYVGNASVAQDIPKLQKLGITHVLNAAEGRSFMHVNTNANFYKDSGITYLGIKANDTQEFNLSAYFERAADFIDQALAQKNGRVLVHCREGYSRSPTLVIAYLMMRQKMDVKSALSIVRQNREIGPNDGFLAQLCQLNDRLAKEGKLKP
# Target: Dual specificity protein phosphatase 3 (Homo sapiens) (UniProt P51452)
# Assay: VHR phosphatase inhibition, SAR follow up, biochemical fluorescent readout with DiFMUP (AID 2074)
# Settings: recombinant VHR phosphatase, DiFMUP fluorescence
structure (smiles),measurement,value
O=C1/C(=C/c2cn(-c3ccccc3)nc2-c2ccc(S(=O)(=O)N3CCCCC3)cc2)SC(=S)N1CCS(=O)(=O)O,IC50,0.27 µM
